CCT chaperon mod – changes cytosolic chaperonin activity; purified chaperonin ATPase assay, HTRF ADP detection, 30 min; activity change, % (concentration not given with the values), hits read low; 0.3% of 360,000 active; AID 651819; in the data active means activity change below about -30%; further: on the % scale 0 is the no-effect control and ±100 the full control effect
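We incubate TRiC, 40 or 20 nM final, with library compounds at 76 uM and 10 uM ATP for 30 min at 37 °C. ADP formed is detected with Transcreener HTRF reagents after 30 min at room temperature.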
Rango complex inh – prevents formation of the Rango-importin beta complex. Q14974. Rango CFP/YFP FRET sensor + importin beta, 45 min. Potency, µM (doses to about 92.2 µM), without a hit: top-dose inhibition of complex formation. 0.031% of 340,000 active. AID 540263;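 further: potency means the concentration at half of the fitted maximal effect; 0% = DMSO wells and 100% = buffer wells lacking importin beta; nearly all actives have a fitted effect of over 15% in size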
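FRET biosensor Rango (snurportin 1 IBB between N-terminal EYFP and C-terminal Cerulean), 50 nM in PBS/1 mM DTT/0.02% Tween-20/0.1% BSA, preincubated 5 min RT with compound; 0.125 microM importin beta added, 45 min RT, CFP/YFP FRET ratio read.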
Rango dissoc inh – prevents RanGTP from dissociating the Rango-importin beta complex; O95149+P62826; Biochemical FRET Rango-importin beta, RanGTP-induced dissociation; 0.071% of 340,000 active; Potency, µM (doses to about 46.1 µM), without a hit: at the highest dose activity change, negative = inhibition; AID 540253; further: potency means the concentration at half of the fitted maximal effect; % of control where 0% means no effect; nearly all actives have a fitted effect of over 45% in size
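Compounds preincubate 5 min with complex of recombinant Rango and importin beta in PBS with 1 mM DTT. Ran (0.6 uM) loaded with 2 mM GTP plus 0.2 uM RCC1 starts dissociation; FRET is recorded 45 min later.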
MmCpn inh – inhibitors of Methanococcus maripaludis chaperonin TRiC (MmCpn) | purified Mm-Cpn ATPase, ADP Transcreener TR-FRET | Potency, µM (top dose mostly 76.9 µM), without a hit: top-dose activity, negative = inhibition, usual class: inhibitors | 0.031% of 330,000 active; active means well fitted inhibition curve with a large enough effect; inconclusive means small, poorly fitted or top-dose-only effect; further: potency means the concentration at half of the fitted maximal effect; on the % scale 0 is the no-effect control and ±100 the full control effect; nearly all actives have a fitted effect of over 80% in size
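Eu-cryptate anti-ADP/ADP-d2 competition gives a ratio inversely related to ADP. Enzyme at 25 nM was pre-exposed to compound for 10 min, then given 10 uM ATP for 30 min, 37°C throughout.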
The depositor's hits bear a star; ? = inconclusive; / = no result given; [ ] = dose if it differs, or a comment. Most compounds without a hit are left out; they make up all but 0.39% or so of the library. Unless noted, the call rests on the fitted dose curve.

Below each SMILES: CCT chaperon mod | Rango complex inh | Rango dissoc inh | MmCpn inh
[1] COC(=O)C1=C(c2ccc(-c3ccccc3)c(F)c2)C[C@@H]2CC[C@H]1N2C(=O)N1CCCC1
    -33* | -1% | 5% | 0%
[2] CCCCNC(=O)/C(C#N)=c1\s/c(=C\c2ccccc2OC(F)F)c(=O)n1CCCOC
    1 | -3% | ? | -1%
[3] COCOC1CCC2C3CCC4=CC(=O)CCC4=C3C=CC12C (stereo not given)
    -1 | ? | 21µM* | /
[4] CC1(O)CCC2C3CCC4=CC(=O)CCC4=C3C=CC21C (stereo not given)
    -3 | -2% | -14% | /
[5] COc1ccc(COC(=O)CCNC(=O)c2ccc(Cl)cc2)cc1
    -2 | ? | -16% | 1%
[6] Nc1ccc(-c2ccccc2)cc1
    -52* | -6% | -3% | /
[7] C=Cn1ccnc1P(=S)(c1nccn1C=C)C1CCCCC1
    -77* | 1% | 2% | -1%
[8] C=Cn1ccnc1P(=S)(c1nccn1C=C)c1nccn1C=C
    0 | -1% | 1% | 0%
[9] O=C(c1cn(Cc2ccccc2F)c2ncccc12)C(F)(F)F
    -36* | -2% | -2% | -1%
[10] Fc1ccc(-c2nc3c(-c4ccc(F)cc4)cnn3cc2CCN2CCOCC2)cc1
    0 | ? | -8% | 0%
[11] COc1ccc(O)c(CN2CCCC(C(=O)c3ccccc3SC)C2)c1 (stereo not given)
    -45* | -2% | 0% | 2%
[12] COc1ccccc1CN1CCCC(C(=O)c2ccccc2SC)C1 (stereo not given)
    -2 | -1% | -4% | 0%
[13] COc1ccc(-n2c(SCCN(C)C)nc3ccccc3c2=O)cc1
    -113* | -5% | 22% | 3%
[14] COc1ccc(-c2nc3ccccc3c(=O)n2-c2ccc(OC)cc2)cc1
    -5 | -1% | 0% | -3%
[15] Cc1ccccc1N(CC(=O)NC1CCCC1)C(=O)c1csnn1
    -1 | 6% | -17% | 2%
[16] CC(OC(=O)COc1ccc(Nc2ccccc2)cc1)C(=O)N(C)c1ccccc1 (stereo not given)
    1 | 1% | 18% | 0%
[17] COC(=O)[C@H]1[C@H]2C[C@@H]3c4[nH]c5cc(OC)ccc5c4CCN3C[C@H]2C[C@@H](OC(=O)/C=C/c2cc(OC)c(OC)c(OC)c2)[C@@H]1OC
    -4 | ? | 5.8µM* | -22%
[18] C[C@@H]1C(=O)O[C@H]2C[C@@]34[C@H]5C[C@@H](C(C)(C)C)[C@]36[C@@H](OC(=O)[C@@H]6O)O[C@@]4(C(=O)O5)[C@]21O
    0 | -4% | 10% | 1%
[19] Cc1ccc(C(=O)Cn2c(-c3ccccc3)noc2=O)cc1
    1 | ? | 21% | -16%
[20] CN1CCc2nc(SCc3cccc(Br)c3)c(C#N)cc2C1
    -1 | ? | 16µM* | -14%

Some entries already given with just Rango dissoc inh, CCT chaperon mod and Rango complex inh.
no.	structure	Rango dissoc inh	CCT chaperon mod	Rango complex inh
1	COC(=O)C1=C(c2ccc(-c3ccccc3)c(F)c2)C[C@@H]2CC[C@H]1N2C(=O)N1CCCC1	5%	-33*	-1%
2	CCCCNC(=O)/C(C#N)=c1\s/c(=C\c2ccccc2OC(F)F)c(=O)n1CCCOC	?	1	-3%
3	COCOC1CCC2C3CCC4=CC(=O)CCC4=C3C=CC12C (stereo not given)	21µM*	-1	?

Remaining list, next part:
Below each SMILES: CCT chaperon mod | Rango complex inh | Rango dissoc inh | MmCpn inh
[21] N#Cc1c(Cl)nc(Cl)c2c1CCN(Cc1ccccc1)C2
    0 | ? | 5.2µM*[inhibitor] | -11%
[22] Cc1ccc(N2C(=O)/C(=C/c3ccc(CN(CCC#N)S(C)(=O)=O)o3)C(=O)NC2=S)cc1C
    / | / | / | -16%
[23] Cc1cccc(N2C(=O)/C(=C/c3ccc(CN(CCC#N)S(C)(=O)=O)o3)C(=O)NC2=S)c1
    -1 | ? | 23µM* | -3%
[24] C=CCN1C(=O)/C(=C\c2ccc(N3CCOCC3)o2)C(=O)NC1=S
    0 | 65µM* | 7% | -2%
